Apparent affinities of Ab-14 variants for a coronavirus HR2 peptide

Target: peptide PDVDLGDISGINAS, taken from heptad repeat 2 (HR2) of SARS-CoV-2 spike.

Parent: Ab-14, a human scFv built as VH, a (GGGGS)3 linker, VL. Only the CDRs of the heavy chain vary.
VH: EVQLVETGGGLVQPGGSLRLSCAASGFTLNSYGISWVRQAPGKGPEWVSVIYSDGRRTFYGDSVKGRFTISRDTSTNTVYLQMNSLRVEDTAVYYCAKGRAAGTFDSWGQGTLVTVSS
VL: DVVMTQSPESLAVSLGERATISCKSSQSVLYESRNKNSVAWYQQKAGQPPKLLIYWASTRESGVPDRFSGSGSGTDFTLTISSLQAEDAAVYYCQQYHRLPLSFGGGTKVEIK

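The parent was found by panning a naive human phage display library on the peptide. AAYL49 was designed without a model: most single CDR substitutions and a random sample of double and triple ones. The assay is AlphaSeq: two haploid yeast populations carry antibody and antigen on their surface. Pairs that bind mate more often; barcode pairs of the diploids are counted by sequencing. A regression on co-assayed BCL2-family reference pairs converts the normalised counts of each replicate to an apparent Kd. Each pool was mated in three replicate cultures.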

The parent's heavy chain CDRs are GFTLNSYGIS, VIYSDGRRTFYGDSVK, GRAAGTFDS; each variant's own CDRs replace them letter for letter. Every variant below is changed at D54 of the VH (sequential numbering). Numbers give log10(Kd / nM), so 0 is 1 nM and 3 is 1 µM. Smaller is tighter. A mean of the replicates is given; it leaves out those without a signal. "nd" marks a missing value. The strain was present, yet no cells mated with the target were sequenced in any replicate, which points to weak or no binding. In this assay the parent's reference entry averaged 0.65; its copy inside this library read 4.11 (one replicate of three). Empty control strains, which show no peptide, gave a signal in 15% of pairings with library AAYL49; the median was 4.06 and 95% of these signals were weaker than 2.83. No background was subtracted. The control count says in how many pairings with the empty strains this scFv gave a signal.

The variant GFTLNSYGIS / VIYSSGRRTFYGDWVK / GLAAGTFDS showed nd (0 of 3 replicates; controls 0 of 9).
The variant GFTLNSYGIS / VIYSHGRRTFGGDSVR / GRAAGTFDS showed nd (0 of 3 replicates; controls 0 of 9).
The variant GFTFNSYGIS / VIYSEGRRTFYGDSVK / GRAAGTFDS showed nd (0 of 3 replicates; controls 0 of 9).
The variant GFTLNSYGIS / VIYSAGRRYFYGDSCK / GRAAGTFDS showed nd (0 of 3 replicates; controls 0 of 9).
The variant GFTLNSYGIS / VIYSPGRRTFYGDSVK / GRAMGTFDS showed nd (0 of 3 replicates; controls 0 of 9).
The variant GFTLISYGIS / VIYSFGRKTFYGDSVK / GRAAGTFDS showed nd (0 of 3 replicates; controls 0 of 9).
The variant GFTLNSYGIS / VSYSKGRRTFYGDSVK / GRAAGTFDS showed nd (0 of 3 replicates; controls 2 of 9).
The variant GFTLNSYGIS / VIYSVGRRTMYGDSVK / GRPAGTFDS showed nd (0 of 3 replicates; controls 0 of 9).
The variant GFTLNSYGIS / VIYSLGRRTFYTDSVK / GRAGGTFDS showed nd (0 of 3 replicates; controls 2 of 9).
The variant GFALNSYGIS / VIYSNGRRTFYGFSVK / GRAAGTFDS showed nd (0 of 3 replicates; controls 0 of 9).
The variant GFTLNSYGIS / VFYSNGRRTFYGDSVK / GRAPGTFDS showed nd (0 of 3 replicates; controls 2 of 9).
The variant GFTLNNYGIS / VIYSNGRRTFYGRSVK / GRAAGTFDS showed 2.70 (1 of 3 replicates; controls 2 of 9).
The variant GPTLNSYGIS / VIYSFGRRWFYGDSVK / GRAAGTFDS showed 4.83 (1 of 3 replicates; controls 1 of 9).
The variant GFTLNSYGIS / VIYTWGRRTFYGDSVK / KRAAGTFDS showed nd (0 of 3 replicates; controls 0 of 9).
The variant GFQLNSYCIS / VIYSNGRRTFYGDSVK / GRAAGTFDS showed 2.86 (1 of 3 replicates; controls 0 of 9).
The variant GFTLNSEGIS / VIYSWGRRTFYGDSVK / GRAAGTFDS showed nd (0 of 3 replicates; controls 0 of 9).
The variant GFTLNSWGIS / VIYSVGRRQFYGDSVK / GRAAGTFDS showed 5.17 (1 of 3 replicates; controls 3 of 9).
The variant GFTLNSHGIS / VIYSFGRRTFYGDSVK / GRAAGTFDS showed nd (0 of 3 replicates; controls 0 of 9).
The variant GFTLNSYGIE / VIYSFGRRTFLGDSVK / GRAAGTFDS showed nd (0 of 3 replicates; controls 1 of 9).
The variant GNTLNSYGIS / VIYSNGRRTFYADSVK / GRAAGTFDS showed 3.67 (3 of 3 replicates; controls 2 of 9).
The variant GFTLNSYGIS / VIYSTGRRTFYGDSVK / GRAAGTFDS showed 3.45 (2 of 3 replicates; controls 1 of 9).
The variant VRTLNSYGIS / VIYSIGRRTFYGDSVK / GRAAGTFDS showed nd (0 of 3 replicates; controls 0 of 9).
The variant GFTLNSYGIS / VIYSIGRRTFYADSVK / GRAAGTFFS showed 4.27 (2 of 3 replicates; controls 0 of 9).
The variant GFTLNRYGIS / VIYSVGRRTFYGDSVK / GMAAGTFDS showed nd (0 of 3 replicates; controls 0 of 9).
The variant GFKLNSYGIS / VIYSQGRRTFYGDSVK / GRAAGTFDK showed nd (0 of 3 replicates; controls 0 of 9).
The variant GFTLNSYGIS / VIYMWGRRTFYGDSVK / GRAPGTFDS showed nd (0 of 3 replicates; controls 0 of 9).
The variant GFTLNSYGIS / VIYSCGRRTFSGDSVK / GRAAGTCDS showed nd (0 of 3 replicates; controls 1 of 9).
The variant GFTLNSYGIS / VIYSAGRRRFYGDSVK / GRAAETFDS showed nd (0 of 3 replicates; controls 0 of 9).
The variant GFTLNSYGIS / VYYSQGRRTFYGDRVK / GRAAGTFDS showed 3.70 (2 of 3 replicates; controls 3 of 9).
The variant GFTLNSYGIS / VIYSGGRRTFYGDSVK / GRAAGTFDL showed nd (0 of 3 replicates; controls 3 of 9).
The variant GFTLNSYGIS / VIHSKGRRTFYGDSVK / GRAAGTFDA showed nd (0 of 3 replicates; controls 1 of 9).
The variant GFTLNSYGIS / RIYSPGRRTFYGDSVK / GCAAGTFDS showed nd (0 of 3 replicates; controls 0 of 9).
The variant GFTLNSYGIE / VIYSRGRRTFYGDSVK / GRIAGTFDS showed nd (0 of 3 replicates; controls 0 of 9).
The variant GFTLNSYGIS / VIYSYGRLTFYVDSVK / GRAAGTFDS showed nd (0 of 3 replicates; controls 0 of 9).
The variant GFTLNSYGIS / VIYSMGRRTFYGDSVK / GRHAVTFDS showed nd (0 of 3 replicates; controls 0 of 9).
The variant GFTLNSYGIS / VIYSSGRRTFYGDSVK / TRFAGTFDS showed nd (0 of 3 replicates; controls 0 of 9).
The variant GFTLNSYDIS / VIYSTGRRTFYGDSIK / GRAAGTFDS showed 4.70 (3 of 3 replicates; controls 3 of 9).
The variant GFTDNSYGIS / VIYSLGRRTFYQDSVK / GRAAGTFDS showed 4.12 (2 of 3 replicates; controls 4 of 9).
The variant GFTLNSYGIS / VIYSQGRRTFYGDWVK / GRAAGTFDT showed nd (0 of 3 replicates; controls 0 of 9).
The variant GFTLNSYGIS / VIYQKGRRTFYGDSVL / GRAAGTFDS showed 4.37 (1 of 3 replicates; controls 0 of 9).
The variant GFTLRSYGIS / VIYSAGRRTFYGDSVK / GRAAGSFDS showed nd (0 of 3 replicates; controls 0 of 9).
The variant GFTLNFYGIS / QIYSMGRRTFYGDSVK / GRAAGTFDS showed 3.15 (1 of 3 replicates; controls 0 of 9).
The variant GFTLNSYGIS / VIYSQGRRHFYGDSVQ / GRAAGTFDS showed nd (0 of 3 replicates; controls 0 of 9).
The variant GFTLNSYGRS / VTYSGGRRTFYGDSVK / GRAAGTFDS showed 2.87 (1 of 3 replicates; controls 3 of 9).
The variant GFTLNSYGIS / VIYSWGRRTRYGDSVK / GRAAGTFDS showed nd (0 of 3 replicates; controls 0 of 9).

4 of these entries, quoted again:

Variant GFTLNSYGIS / VIYSAGRRRFYGDSVK / GRAAETFDS gave nd (0 of 3 replicates; controls 0 of 9).
Variant GFTLNSYGIS / VIYTWGRRTFYGDSVK / KRAAGTFDS gave nd (0 of 3 replicates; controls 0 of 9).
Variant GFTLNSYGIS / VIYSMGRRTFYGDSVK / GRHAVTFDS gave nd (0 of 3 replicates; controls 0 of 9).
Variant GFTLNSYGIS / VIHSKGRRTFYGDSVK / GRAAGTFDA gave nd (0 of 3 replicates; controls 1 of 9).

Reference: Engelhart et al. 2022, doi:10.1038/s41597-022-01779-4. File: FLAb, binding data.